# miR-21 reporter – raises the signal of a miR-21 reporter; AID 2288; 340,000 tested, under 10 active; Potency, µM (doses to about 38.3 µM), inactives show at the top dose reporter change, positive = more light; HeLa miR-21 FLuc reporter, luciferase, 48 h; active = well fitted rising curve with a large enough effect; inconclusive = small, poorly fitted or top-dose-only effect; inactive = no such curve, though single readings can be large or run the other way;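 note: % of control where 0% means no effect; miR-21 action dims this reporter so a rising signal means less miR-21 action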
#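 HeLa miR-21-FLuc reporter line, endogenous miR-21; 2000 cells/well in DMEM/10% FBS; compound titration up to ~40uM final, 48 h, 37 degree Celsius; luciferase detection reagent, 15 min lysis, CCD luminescence.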
# uPA generation – inhibitors of cell surface uPA generation; cell surface uPA generation assay, qHTS; Potency, µM (series often up to 38.3 µM), without a hit: top-dose activity change, negative = inhibition, actives largely listed as inhibitors; hit rate 0.31% among 330,000; active = well fitted inhibition curve with a large enough effect; inconclusive = small, poorly fitted or top-dose-only effect; inactive = no such curve, though single readings can be large or run the other way; tested in mouse RAW 264.7 cells; also: potency is read from the fitted curve at half-maximal effect; % is scaled to controls: 0 for no effect and ±100 for the full control effect; nearly all actives have a fitted effect of over 55% in size
# TDP1 inh – TDP1 (human) enzyme inhibition; Potency, µM (highest dose often 130 µM), for inactives: at the top dose activity change, negative = inhibition, usual class: inhibitors; Q9NUW8; recombinant TDP1, AlphaScreen DNA substrate cleavage; AID 485290; hit rate 0.28% among 350,000; also: potency is read from the fitted curve at half-maximal effect; % is scaled to controls: 0 for no effect and ±100 for the full control effect; nearly all actives have a fitted effect of over 40% in size
#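 Signal: AlphaScreen proximity between streptavidin donor and anti-FITC acceptor beads on intact substrate. Reaction: Tdp1 1 nM, substrate 15 nM final, 5 min RT after 15 min compound preincubation.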
# DT40 TDP1 CPT – DT40-hTDP1 cell growth loss with CPT; AID 686979; Potency, µM (series often up to 46.2 µM), for inactives: top-dose activity change, negative = growth inhibition, most hits filed as inhibitors; chicken DT40 Tdp1-/-;hTDP1 cells + 20 nM CPT, ATP luminescence, 48 h; hit rate 12% among 420,000; also: potency is read from the fitted curve at half-maximal effect; % is scaled to controls: 0 for no effect and ±100 for the full control effect; nearly all actives have a fitted effect of over 55% in size
#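 Chicken DT40 Tdp1-/- cells complemented with human TDP1, 400 cells/well, exposed to compounds plus 20 nM camptothecin for at least 48 h at 37 C; viability read as ATP content by CellTiter-Glo luminescence.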
# TDP1 cell noCPT – qHTS for Inhibitors of human tyrosyl-DNA phosphodiesterase 1 (TDP1): qHTS in cells in absence of CPT. hit rate 15% among 420,000. Potency, µM (titrated, usually from 46.2 µM), for inactives: top-dose activity change, negative = growth inhibition, most hits filed as inhibitors. DT40 Tdp1-/- hTDP1 cells, no CPT, ATP luminescence, 48 h. AID 686978, 2013; also: potency is read from the fitted curve at half-maximal effect; % is scaled to controls: 0 for no effect and ±100 for the full control effect; nearly all actives have a fitted effect of over 55% in size
#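 Chicken DT40 Tdp1-/- cells stably complemented with human TDP1 were seeded at 400 cells/well with DMSO in place of 20 nM camptothecin. After compound pinning, cells grew at least 48 hr at 37 °C; viability read by CellTiter-Glo luminescence.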
# * marks the source's active call; other numbers are inactive results; ? = inconclusive; . = no result given; [ ] = another dose, or the depositor's remark. An excerpt weighted towards active compounds, which were near 16% of everything screened. Unless noted, calls follow the shape of the dose curve; as a rule, active = well fitted curve in the direction sought with a large enough effect; inconclusive = small, poorly fitted or top-dose-only effect, or another doubt; inactive = no such curve, though single readings can be large; an effect the other way counts as inactive or inconclusive.
SMILES,miR-21 reporter,uPA generation,TDP1 inh,DT40 TDP1 CPT,TDP1 cell noCPT
COc1cccc(Nc2ncnc3ccc(Br)cc23)c1,.,.,.,?,21µM*
COc1cc2nc(SCc3ccc(Cl)cc3)n3nc(CCn4nc(C)cc4C)nc3c2cc1OC,-10%,.,0%,21%,-9%
NC(c1csc(Nc2cnccn2)n1)C1CCCCC1 (stereo not drawn),.,.,.,23µM*,-86%
NC(c1csc(Nc2ccc(C(=O)NCCCO)cn2)n1)C1CCCCC1 (stereo not drawn),.,.,.,-44%,?
NC(c1csc(Nc2ccc(C(F)(F)F)cn2)n1)C1CCCCC1 (stereo not drawn),.,.,.,23µM*,21µM*
NC(c1csc(Nc2nccc(C(F)(F)F)n2)n1)C1CCCCC1 (stereo not drawn),.,.,.,?,12µM*
Cc1ccc(CN2CCN(C3CCN(C(=O)OC(C)(C)C)CC3)C(=O)C2=O)cc1,-1%,.,6%,-21%,-6%
CCOC(=O)N1C(=O)[C@](c2ccc(Cl)cc2)(C(C)C)N1C(=O)OCC,10%,-21%,.,18µM*,15µM*
CCOC(=O)N1C(=O)[C@@](c2ccc(Cl)cc2)(C(C)C)N1C(=O)OCC,?,?,.,21µM*,?
CCOc1ccc(C(=O)N[C@H](C(=O)Nc2cccc(S(=O)(=O)N3CCCCC3)c2)C(C)C)cc1,-11%,0%,-2%,?,?
Cc1ccc(-c2nnn(CC(=O)N(CC3CCCO3)C(C(=O)NC(C)(C)C)c3ccc(F)cc3)n2)o1 (stereo not drawn),-8%,7%,1%[56.1 µM],-1%,-4%
CC(C)C(C)NC(=O)CN1C(=O)NC2(CCc3ccccc32)C1=O (stereo not drawn),-2%,0%,6%,7%,23%
CCOC(=O)CSc1cc(CSc2ccccc2)nc(-c2ccccc2)n1,-2%,4%,-11%,-20%,?
O=C(NCc1ccco1)c1cccc2c1C(=O)c1ccc(N3CCC(N4CCCCC4)CC3)cc1S2(=O)=O,.,.,.,19%,-6%
O=C(Nc1cc2c(cc1Br)OCCO2)c1cccnc1,-33%,5%,7%,-6%,3%
Cc1ccc(CSc2nc3ccccc3c(=O)n2Cc2ccco2)cc1,-10%,-4%,-3%,?,?
O=C(CCCn1c(=O)c2ccccc2n(Cc2ccccc2)c1=O)NCc1ccco1,17%,-10%,-2%,12µM*,15µM*
O=c1c2sccc2nc(SCc2ccc([N+](=O)[O-])cc2)n1Cc1ccccn1,-36%,-7%,0%,?,16µM*
Cc1ccc(CNC(=O)CSc2nc3ccsc3c(=O)n2Cc2ccccn2)cc1,-20%,7%,-1%,-1%,-14%
Cc1ccc(CSc2nc3ccccc3c(=O)n2CCCC(=O)NCc2ccco2)cc1,-1%,.,-3%,?,12µM*

# A second format for 4 compounds above:
SMILES	miR-21 reporter	uPA generation	TDP1 inh	DT40 TDP1 CPT	TDP1 cell noCPT
Cc1ccc(CN2CCN(C3CCN(C(=O)OC(C)(C)C)CC3)C(=O)C2=O)cc1	-1%	.	6%	-21%	-6%
NC(c1csc(Nc2cnccn2)n1)C1CCCCC1 (stereo not drawn)	.	.	.	23µM*	-86%
O=C(Nc1cc2c(cc1Br)OCCO2)c1cccnc1	-33%	5%	7%	-6%	3%
Cc1ccc(CNC(=O)CSc2nc3ccsc3c(=O)n2Cc2ccccn2)cc1	-20%	7%	-1%	-1%	-14%

# The listing continues.
SMILES,miR-21 reporter,uPA generation,TDP1 inh,DT40 TDP1 CPT,TDP1 cell noCPT
Cc1ccc(CNC(=O)CCCn2c(=O)c3ccccc3n(CC(=O)NCc3ccco3)c2=O)cc1,0%,-2%,-2%,-8%,-25%
O=C(CCCCn1c(=O)c2ccccc2n(Cc2ccc(F)cc2)c1=O)NCc1ccco1,16%,-12%,0%,16µM*,15µM*
Cc1ccc(S(=O)(=O)N2CCC3(CC2)OCCO3)cc1,-2%,-1%,3%[56.1 µM],-5%,16%
O=c1c2ccccc2nc(SCc2ccc([N+](=O)[O-])cc2)n1CCCO,-9%,-6%,-3%,10µM*,6.5µM*
Nn1c(SCc2ccc([N+](=O)[O-])cc2)nc2ccccc2c1=O,2%,13%,.,-12%,?
COc1ccc(CCN=C(N)NS(=O)(=O)c2ccc(OC)c(OC)c2)cc1OC,-3%,11%,2%,11%,6%
Cc1cnc(NC(=O)c2ccc3c(c2)C(=O)N(Cc2cccnc2)C3=O)s1,-2%,13%,5%,2%,-9%
CC1CCc2c(nc3nc[nH]n3c2=O)C1 (stereo not drawn),-2%,-1%,8%,3%,-5%
S=c1c2c(nc3nc[nH]n13)CCC2,-5%,17%,7%,?,21µM*
